Assay results as given in PubChem BioAssay AID2825 (Sanford-Burnham Center for Chemical Genomics, 2010).
This is a selection; strong and weak results do not stand in their true shares. Activity calls are given as the source filed them.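 The calls were made as follows: active = inhibition of 50% or more; inactive = inhibition below 50%.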

Test: NALP3 inflammasome inhibitors in reconstituted yeast, primary screen, luminescence, uHTS (AID 2825);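 also: plate controls were induced DMSO wells for no effect and uninduced yeast grown without galactose for full effect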
Details: Yeast reconstituted NLRP3/ASC/caspase-1, beta-gal luminescence, 24 h; at 10 µM; hits give high values

Structure (SMILES) | inhibition
CC1=NCCc2c1[nH]c1ccccc21.O=[N+]([O-])c1cc([N+](=O)[O-])c(O)c([N+](=O)[O-])c1 | inactive: 10.2%
